# Data published in ChEMBL document CHEMBL3286203, “Reactive oxygen species (ROS) inducible DNA cross-linking agents and their effect on cancer cells and normal lymphocytes” (J Med Chem, 2014).
# How the values were obtained:
# [1] = Induction of apoptosis in human CLL cells at 10 uM after 24 hrs by Annexin/propidium iodide staining-based assay (reference value: 95%)
# [2] = Induction of apoptosis in human CLL cells at 10 uM after 48 hrs by Annexin/propidium iodide staining-based assay (reference value: 91%)
# [3] = test system: HOP-62; assay: Cytotoxicity against human HOP62 cells after 48 hrs by SRB assay; type: functional
# Outline: (§1)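 GI50 was determined in the NCI Developmental Therapeutics Program in vitro 60-line cancer screen. Tumour lines were maintained in RPMI 1640 containing 5% FBS and 2 mM L-glutamine. Cells were inoculated at 5000–40 000 cells/well according to each line's doubling time before drug exposure.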
# [4] = test system: HOP-92; assay: Cytotoxicity against human HOP92 cells after 48 hrs by SRB assay; type: functional; outline: as §1
# [5] = test system: NCI-H226; assay: Cytotoxicity against human NCI-H226 cells after 48 hrs by SRB assay; type: functional
# Outline: (§2)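 GI50 from the NCI Developmental Therapeutics Program in vitro human tumor cell screen. Cell lines were maintained in RPMI 1640 with 5% fetal bovine serum and 2 mM L-glutamine. They were seeded at 5000–40 000 cells/well, depending on each line's doubling time, then exposed to drug for 48 h at 37 °C, 5% CO2.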
# [6] = test system: NCI-H23; assay: Cytotoxicity against human NCI-H23 cells after 48 hrs by SRB assay; type: functional; outline: as §2
# [7] = test system: NCI-H322M; assay: Cytotoxicity against human NCI-H322M cells after 48 hrs by SRB assay; type: functional; outline: as §2
# [8] = test system: NCI-H460; assay: Cytotoxicity against human NCI-H460 cells after 48 hrs by SRB assay; type: functional; outline: as §2
# [9] = test system: NCI-H522; assay: Cytotoxicity against human NCI-H522 cells after 48 hrs by SRB assay; type: functional; outline: as §2
# [10] = test system: COLO 205; assay: Cytotoxicity against human COLO205 cells after 48 hrs by SRB assay; type: functional; outline: as §1
# [11] = test system: HCC 2998; assay: Cytotoxicity against human HCC2998 cells after 48 hrs by SRB assay; type: functional; outline: as §1
# [12] = test system: HCT-116; assay: Cytotoxicity against human HCT116 cells after 48 hrs by SRB assay; type: functional; outline: as §1
# [13] = Cytotoxicity against human HCT15 cells after 48 hrs by SRB assay; type: functional, HCT-15; outline: as §1
# [14] = test system: HT-29; assay: Cytotoxicity against human HT-29 cells after 48 hrs by SRB assay; type: functional; outline: as §1
# [15] = test system: KM12; assay: Cytotoxicity against human KM12 cells after 48 hrs by SRB assay; type: functional; outline: as §1
# [16] = test system: SW-620; assay: Cytotoxicity against human SW620 cells after 48 hrs by SRB assay; type: functional
# Outline: (§3)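 GI50 from the NCI-60 DTP human tumour line screen. Lines grown in RPMI 1640 with 5% fetal bovine serum and 2 mM L-glutamine, plated at 5000–40 000 cells/well according to doubling time. Incubated 48 h at 37 °C, 5% CO2.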
# [17] = test system: SF-268; assay: Cytotoxicity against human SF268 cells after 48 hrs by SRB assay; type: functional; outline: as §2
# [18] = test system: SF-295; assay: Cytotoxicity against human SF295 cells after 48 hrs by SRB assay; type: functional; outline: as §2
# [19] = test system: SF-539; assay: Cytotoxicity against human SF539 cells after 48 hrs by SRB assay; type: functional; outline: as §2
# [20] = test system: SNB-19; assay: Cytotoxicity against human SNB19 cells after 48 hrs by SRB assay; type: functional; outline: as §3
# [21] = test system: SNB-75; assay: Cytotoxicity against human SNB75 cells after 48 hrs by SRB assay; type: functional; outline: as §3
# [22] = test system: U-251; assay: Cytotoxicity against human U251 cells after 48 hrs by SRB assay; type: functional; outline: as §3
# [23] = test system: LOX IMVI; assay: Cytotoxicity against human LOXIMVI cells after 48 hrs by SRB assay; type: functional; outline: as §1
# [24] = test system: Malme-3M; assay: Cytotoxicity against human MALME-3M cells after 48 hrs by SRB assay; type: functional; outline: as §1
# [25] = test system: M14; assay: Cytotoxicity against human M14 cells after 48 hrs by SRB assay; type: functional; outline: as §1
# [26] = test system: MDA-MB-435; assay: Cytotoxicity against human MDA-MB-435 cells after 48 hrs by SRB assay; type: functional; outline: as §2
# [27] = test system: SK-MEL-2; assay: Cytotoxicity against human SK-MEL-2 cells after 48 hrs by SRB assay; type: functional; outline: as §2
# [28] = test system: SK-MEL-28; assay: Cytotoxicity against human SK-MEL-28 cells after 48 hrs by SRB assay; type: functional; outline: as §2
# [29] = test system: SK-MEL-5; assay: Cytotoxicity against human SK-MEL-5 cells after 48 hrs by SRB assay; type: functional; outline: as §2
# [30] = Cytotoxicity against human UACC257 cells after 48 hrs by SRB assay; type: functional, UACC-257; outline: as §3
# [31] = Cytotoxicity against human UACC62 cells after 48 hrs by SRB assay; type: functional, UACC-62; outline: as §3
# [32] = test system: IGROV-1; assay: Cytotoxicity against human IGROV1 cells after 48 hrs by SRB assay; type: functional; outline: as §1
# [33] = Cytotoxicity against human OVCAR3 cells after 48 hrs by SRB assay; type: functional, OVCAR-3; outline: as §2
# [34] = Cytotoxicity against human OVCAR4 cells after 48 hrs by SRB assay; type: functional, OVCAR-4; outline: as §2
# [35] = Cytotoxicity against human OVCAR5 cells after 48 hrs by SRB assay; type: functional, OVCAR-5; outline: as §2
# [36] = Cytotoxicity against human OVCAR8 cells after 48 hrs by SRB assay; type: functional, OVCAR-8; outline: as §2
# [37] = Cytotoxicity against human NCI-ADR-RES cells after 48 hrs by SRB assay; type: functional; outline: as §2
# [38] = test system: SK-OV-3; assay: Cytotoxicity against human SKOV3 cells after 48 hrs by SRB assay; type: functional; outline: as §2
# [39] = test system: 786-0; assay: Cytotoxicity against human 786-0 cells after 48 hrs by SRB assay; type: functional; outline: as §1
# [40] = test system: A498; assay: Cytotoxicity against human A498 cells after 48 hrs by SRB assay; type: functional; outline: as §1
# [41] = test system: ACHN; assay: Cytotoxicity against human ACHN cells after 48 hrs by SRB assay; type: functional; outline: as §1
# [42] = test system: CAKI-1; assay: Cytotoxicity against human Caki1 cells after 48 hrs by SRB assay; type: functional; outline: as §1
# [43] = test system: RXF 393; assay: Cytotoxicity against human RXF393 cells after 48 hrs by SRB assay; type: functional; outline: as §2
# [44] = test system: SN12C; assay: Cytotoxicity against human SN12C cells after 48 hrs by SRB assay; type: functional; outline: as §2
# [45] = test system: TK-10; assay: Cytotoxicity against human TK10 cells after 48 hrs by SRB assay; type: functional; outline: as §3
# [46] = Cytotoxicity against human UO31 cells after 48 hrs by SRB assay; type: functional, UO-31; outline: as §3
# [47] = test system: PC-3; assay: Cytotoxicity against human PC3 cells after 48 hrs by SRB assay; type: functional; outline: as §2
# [48] = test system: DU-145; assay: Cytotoxicity against human DU145 cells after 48 hrs by SRB assay; type: functional; outline: as §1
# [49] = test system: MCF7; assay: Cytotoxicity against human MCF7 cells after 48 hrs by SRB assay; type: functional; outline: as §1
# [50] = test system: MDA-MB-231; assay: Cytotoxicity against human MDA-MB-231 cells after 48 hrs by SRB assay; type: functional; outline: as §2
# [51] = Cytotoxicity against human Hs578T cells after 48 hrs by SRB assay; type: functional, Hs-578T; outline: as §1
# [52] = test system: BT-549; assay: Cytotoxicity against human BT549 cells after 48 hrs by SRB assay; type: functional; outline: as §1
# [53] = test system: T47D; assay: Cytotoxicity against human T47D cells after 48 hrs by SRB assay; type: functional; outline: as §3
# [54] = test system: MDA-MB-468; assay: Cytotoxicity against human MDA-MB-468 cells after 48 hrs by SRB assay; type: functional; outline: as §2
# [55] = 1-Octanol-PBS partition coefficient, log P of the compound; type: physicochemical; conditions: octanol/water
# [56] = Induction of apoptosis in human CLL cells after 24 hrs by Annexin/propidium iodide staining-based assay
# [57] = Induction of apoptosis in human lymphocytes at 10 uM after 24 to 48 hrs by Annexin/propidium iodide staining-based assay; type: cell-based; conditions: lymphocyte
# [58] = Induction of apoptosis in human lymphocytes after 24 hrs by Annexin/propidium iodide staining-based assay; conditions: lymphocyte
# [59] = test system: CCRF-CEM; assay: Cytotoxicity against human CCRF-CEM cells after 48 hrs by SRB assay; type: functional; outline: as §1
# [60] = test system: HL-60(TB); assay: Cytotoxicity against human HL-60(TB) cells after 48 hrs by SRB assay; type: functional; outline: as §1
# [61] = test system: K562; assay: Cytotoxicity against human K562 cells after 48 hrs by SRB assay; type: functional; outline: as §1
# [62] = test system: MOLT-4; assay: Cytotoxicity against human MOLT4 cells after 48 hrs by SRB assay; type: functional; outline: as §2
# [63] = test system: RPMI-8226; assay: Cytotoxicity against human RPMI8226 cells after 48 hrs by SRB assay; type: functional; outline: as §2
# [64] = test system: SR; assay: Cytotoxicity against human SR cells after 48 hrs by SRB assay; type: functional; outline: as §3
# [65] = test system: A549; assay: Cytotoxicity against human A549 cells after 48 hrs by SRB assay; type: functional; outline: as §1
# [66] = Cytotoxicity against human EKVX cells after 48 hrs by SRB assay; type: functional; outline: as §1
smiles,measurement,setting,value
OB(O)c1ccc(N(CCCl)CCCl)cc1,Activity,[1],92%
same,Activity,[2],83%
same,GI50,[3],8.48 µM
same,GI50,[4],10.5 µM
same,GI50,[5],10.3 µM
same,GI50,[6],3.36 µM
same,GI50,[7],15.1 µM
same,GI50,[8],0.23 µM
same,GI50,[9],3.53 µM
same,GI50,[10],7.26 µM
same,GI50,[11],12.1 µM
same,GI50,[12],9.37 µM
same,GI50,[13],9.46 µM
same,GI50,[14],11.9 µM
same,GI50,[15],15.1 µM
same,GI50,[16],8.39 µM
same,GI50,[17],4.72 µM
same,GI50,[18],1.36 µM
same,GI50,[19],3.35 µM
same,GI50,[20],8 µM
same,GI50,[21],3.21 µM
same,GI50,[22],3.49 µM
same,GI50,[23],3.13 µM
same,GI50,[24],19.7 µM
same,GI50,[25],4.77 µM
same,GI50,[26],13 µM
same,GI50,[27],19 µM
same,GI50,[28],13.5 µM
same,GI50,[29],10.9 µM
same,GI50,[30],11.6 µM
same,GI50,[31],4.71 µM
same,GI50,[32],18.1 µM
same,GI50,[33],12 µM
same,GI50,[34],12.1 µM
same,GI50,[35],16 µM
same,GI50,[36],4.2 µM
same,GI50,[37],2.69 µM
same,GI50,[38],3.81 µM
same,GI50,[39],4.04 µM
same,GI50,[40],3.43 µM
same,GI50,[41],1.75 µM
same,GI50,[42],1.44 µM
same,GI50,[43],2.55 µM
same,GI50,[44],2.08 µM
same,GI50,[45],15.5 µM
same,GI50,[46],6.05 µM
same,GI50,[47],15.1 µM
same,GI50,[48],4.89 µM
same,GI50,[49],1.89 µM
same,GI50,[50],16.6 µM
same,GI50,[51],31.4 µM
same,GI50,[52],6.63 µM
same,GI50,[53],6.29 µM
same,GI50,[54],0.51 µM
same,logP,[55],2.5
same,IC50,[56],4.8 µM
same,Activity,[57],Toxic
same,Activity,[58],Dose-dependent effect
same,GI50,[59],3.27 µM
same,GI50,[60],2.88 µM
same,GI50,[61],15.8 µM
same,GI50,[62],2.9 µM
same,GI50,[63],8.59 µM
same,GI50,[64],0.48 µM
same,GI50,[65],0.89 µM
same,GI50,[66],15.4 µM
